Measurements reported in ChEMBL document CHEMBL4396900, “Extending Cross Metathesis To Identify Selective HDAC Inhibitors: Synthesis, Biological Activities, and Modeling” (ACS Med Chem Lett, 2019).

The chains behind the UniProt entries cited, without tags or fusion partners. Where a name states a change or a piece, a line headed by the entry shows the natural chain unless it says otherwise.
UniProt Q9UQL6: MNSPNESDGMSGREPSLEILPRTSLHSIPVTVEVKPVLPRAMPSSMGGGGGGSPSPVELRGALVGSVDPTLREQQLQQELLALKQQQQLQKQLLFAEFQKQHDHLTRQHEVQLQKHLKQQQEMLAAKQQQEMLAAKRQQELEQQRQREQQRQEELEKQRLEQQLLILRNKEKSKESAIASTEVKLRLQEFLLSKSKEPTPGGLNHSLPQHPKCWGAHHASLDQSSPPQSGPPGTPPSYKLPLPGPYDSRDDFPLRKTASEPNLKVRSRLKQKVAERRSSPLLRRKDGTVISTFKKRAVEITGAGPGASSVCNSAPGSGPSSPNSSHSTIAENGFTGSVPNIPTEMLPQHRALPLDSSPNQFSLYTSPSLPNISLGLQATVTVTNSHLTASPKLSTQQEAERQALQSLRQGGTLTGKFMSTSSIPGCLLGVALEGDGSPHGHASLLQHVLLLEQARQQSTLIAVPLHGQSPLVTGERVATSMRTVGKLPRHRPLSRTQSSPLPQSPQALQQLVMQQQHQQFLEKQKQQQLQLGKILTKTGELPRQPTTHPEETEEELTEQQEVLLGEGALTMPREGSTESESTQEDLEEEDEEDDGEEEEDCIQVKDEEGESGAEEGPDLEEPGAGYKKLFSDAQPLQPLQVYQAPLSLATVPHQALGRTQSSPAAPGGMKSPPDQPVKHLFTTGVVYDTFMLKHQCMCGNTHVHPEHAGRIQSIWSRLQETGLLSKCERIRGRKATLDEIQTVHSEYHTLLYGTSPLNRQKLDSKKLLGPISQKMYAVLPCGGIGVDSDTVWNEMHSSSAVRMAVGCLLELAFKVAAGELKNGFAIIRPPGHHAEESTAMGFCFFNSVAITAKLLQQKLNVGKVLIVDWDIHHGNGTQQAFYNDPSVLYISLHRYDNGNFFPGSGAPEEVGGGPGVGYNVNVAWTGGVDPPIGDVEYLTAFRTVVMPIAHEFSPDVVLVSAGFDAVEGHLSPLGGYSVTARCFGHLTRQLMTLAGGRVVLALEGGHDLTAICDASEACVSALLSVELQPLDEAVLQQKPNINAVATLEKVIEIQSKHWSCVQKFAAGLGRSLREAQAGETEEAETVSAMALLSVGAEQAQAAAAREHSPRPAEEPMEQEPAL
UniProt Q9UKV0: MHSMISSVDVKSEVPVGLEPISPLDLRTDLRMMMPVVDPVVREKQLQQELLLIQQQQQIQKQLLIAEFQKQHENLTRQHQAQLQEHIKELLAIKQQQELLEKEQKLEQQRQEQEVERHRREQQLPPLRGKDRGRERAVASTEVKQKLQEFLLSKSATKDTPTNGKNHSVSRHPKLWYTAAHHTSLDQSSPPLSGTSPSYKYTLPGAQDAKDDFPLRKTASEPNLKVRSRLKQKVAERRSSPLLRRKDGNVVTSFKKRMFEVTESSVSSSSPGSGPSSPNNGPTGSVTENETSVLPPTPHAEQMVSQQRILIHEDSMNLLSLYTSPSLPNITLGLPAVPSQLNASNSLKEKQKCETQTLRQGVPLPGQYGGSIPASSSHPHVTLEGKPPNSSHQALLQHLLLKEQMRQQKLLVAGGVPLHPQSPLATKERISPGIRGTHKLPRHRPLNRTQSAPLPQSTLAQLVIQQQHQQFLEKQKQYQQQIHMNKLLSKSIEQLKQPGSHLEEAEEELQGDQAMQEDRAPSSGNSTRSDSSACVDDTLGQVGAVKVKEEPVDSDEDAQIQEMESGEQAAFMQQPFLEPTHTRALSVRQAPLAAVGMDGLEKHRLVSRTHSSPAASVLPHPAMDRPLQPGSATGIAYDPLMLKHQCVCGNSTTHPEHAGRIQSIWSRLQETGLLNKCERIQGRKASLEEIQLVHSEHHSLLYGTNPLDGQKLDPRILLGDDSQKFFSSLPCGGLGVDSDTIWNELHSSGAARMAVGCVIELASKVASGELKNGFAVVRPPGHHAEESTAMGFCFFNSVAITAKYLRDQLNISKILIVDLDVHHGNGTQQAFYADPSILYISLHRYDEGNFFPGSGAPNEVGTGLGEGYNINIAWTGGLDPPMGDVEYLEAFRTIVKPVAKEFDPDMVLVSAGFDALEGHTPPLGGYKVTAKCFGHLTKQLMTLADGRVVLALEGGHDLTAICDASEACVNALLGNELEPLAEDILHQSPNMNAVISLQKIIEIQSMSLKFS

Assays:
Histone deacetylase 5 = Histone deacetylase 5 (Homo sapiens, UniProt Q9UQL6); assay: Inhibition of human recombinant HDAC5 using fluorogenic HDAC substrate class 2a measured after 30 mins by fluorimetry assay
Histone deacetylase 9 = Histone deacetylase 9 (Homo sapiens, UniProt Q9UKV0); assay: Inhibition of human recombinant HDAC9 using fluorogenic HDAC substrate class 2a measured after 30 mins by fluorimetry assay

IC50 (Histone deacetylase 5): 1.6 µM
IC50 (Histone deacetylase 9): 5.1 µM
Compound: CC(/C=C/C(=O)NO)=C\[C@H](C)C(=O)c1ccc(N(C)C)cc1
